# From PubChem BioAssay (NCI)
# The list shows a part of the results, in another mix than the full data. Some compounds were tested as several samples or in several runs, with calls that do not always agree. The source made the active and inactive calls. No stated cut-off is given here; in the data, active means growth inhibition above about 70%; inactive means the rest.
# Assay: NCI Yeast Anticancer Drug Screen. Data for the wt2 strain (AID 169);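 further: 0% = growth of vehicle-treated yeast cultures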
# Details: S. cerevisiae wt2 strain growth inhibition, stronger effect = higher value
# Method: Growth inhibition of yeast strains with defined genetic alterations is measured as a screen for potential anti-cancer activity. Selected strains with alterations in DNA damage repair or cell cycle control were exposed to compounds and growth inhibition was measured relative to vehicle treated controls. The strain used in this assay is wt2
Structure (SMILES),growth inhibition (at 1.2 µM),growth inhibition (at 3.7 µM),growth inhibition (at 11.0 µM),growth inhibition (at 33.0 µM),growth inhibition (at 100.0 µM)
Cc1ccc([N+](=O)[O-])c(C[N+](C)(CCCl)CCCl)c1,inactive: -4%,inactive: -6%,inactive: 5%,inactive: 35%,active: 85%
COc1ccc([N+](=O)[O-])c(C[N+](C)(CCCl)CCCl)c1,inactive: 13%,inactive: 13%,inactive: 3%,inactive: 17%,inactive: 26%
Cn1cnc([N+](=O)[O-])c1C[N+](C)(CCCl)CCCl,inactive: 17%,inactive: 17%,inactive: 18%,inactive: 34%,active: 72%
Cc1cccc(C[N+](C)(CCCl)CCCl)c1[N+](=O)[O-],inactive: -2%,inactive: -2%,inactive: 7%,inactive: 35%,active: 83%
COc1ccc(C[N+](C)(CCCl)CCCl)c([N+](=O)[O-])c1,inactive: 0%,inactive: 1%,inactive: 4%,inactive: 7%,inactive: 6%
ClCCN1CCCCC1CCl (stereo not given),inactive: -1%,inactive: 6%,inactive: 1%,inactive: 8%,inactive: 36%
